Experimental data as given in article PMC3744640 (Bioorganic & medicinal chemistry letters, 2013).

System: 10 recombinant kinases
Settings: 10 μM concentration

O=C(NC12CC3CC(CC(C3)C1)C2)N[C@H]1CC[C@H](Oc2ccc(C(=O)O)cc2)CC1 [compound 11, trans-4-[4-(3-adamantan-1-yl-ureido)-cyclohexyloxy]-benzoic acid]
multi-kinase inhibition (in words): no significant multi-kinase inhibition
